Measured values from patent US10118930B2, “Piperidinylpyrazolopyrimidinones and their use” (BAYER PHARMA AKTIENGESELLSCHAFT, priority 2015, dated 2018).
Counter-ions that a name gives are not always drawn.

tested on: clot lysis (fibrinolysis) in diluted human citrated plasma, tPA-induced; experiment: Plasma-based clot lysis assay (5%); format: biochemical; settings: human citrated platelet-poor plasma 5%, fibrinogen 3 μM, CaCl2 10 mM, tPA 0.2 nM, 37° C., OD at 405 nm
Protocol: B-2. Plasma-based Clot Lysis Assay (5%)
The clot-lysis test system configures the kinetics of clot formation and degradation in vitro and allows quantifying modulation of the process by selected test compounds.
The test compounds were dissolved in 1% acetic acid and further complemented with an equal volume of DMSO. The resulting stock solutions were serially diluted in 0.5% acetic acid/50% DMSO. 1 μL aliquots of these solutions were placed into 384 well microplates (Greiner, black, transparent bottom), followed by 30 μL of diluted human citrated plasma (platelet-poor, final concentration: 5%; supplemented with fibrinogen, final concentration: 3 μM; dilution buffer: 20 mM HEPES, 150 mM NaCl, 0.01% Brij (pH 7)). The reactions were started by addition of 20 μL of CaCl2 (final concentration: 10 mM), and tPA (tissue plasminogen activator, final concentration: 0.2 nM) in dilution buffer, followed by an additional volume of 20 μL dilution buffer for improved mixing. The reactions were incubated at 37° C. […] IC50 values were determined by comparing the resulting time courses with the time course of a blank control reaction.

First: Cc1nn2c(C3CCNCC3)cc(=O)[nH]c2c1C1CC1 [Example 368, 3-cyclopropyl-2-methyl-7-(piperidin-4-yl)pyrazolo[1,5-a]pyrimidin-5(4H)-one hydrochloride]
Second: Cc1nn2c(C3CCNCC3)cc(=O)[nH]c2c1C(=O)OC1CCC1 [Example 364, Cyclobutyl 2-methyl-5-oxo-7-(piperidin-4-yl)-4,5-dihydropyrazolo[1,5-a]pyrimidine-3-carboxylate hydrochloride]
The IC50 of the first is 35-fold higher: 390 nM for the first, 11 nM for the second.

`Cc1ccccc1-c1nnc(-c2cnn3c(C4CCNCC4)cc(=O)[nH]c23)o1` [Example 171, 3-[5-(2-methylphenyl)-1,3,4-oxadiazol-2-yl]-7-(piperidin-4-yl)pyrazolo[1,5-a]pyrimidin-5(4H)-one hydrochloride] and `O=c1cc(C2CCNCC2)n2ncc(-c3nnc(-c4cccc(Cl)c4)o3)c2[nH]1` [Example 169, 3-[5-(3-chlorophenyl)-1,3,4-oxadiazol-2-yl]-7-(piperidin-4-yl)pyrazolo[1,5-a]pyrimidin-5(4H)-one hydrochloride] are within 1.5-fold of each other in IC50: 35 nM for the first, 34 nM for the second.

`Cc1ccc(-c2cnn3c(C4CCNCC4)cc(=O)[nH]c23)cc1` [Example 45, 3-(4-Methylphenyl)-7-(piperidin-4-yl)pyrazolo[1,5-a]pyrimidin-5(4H)-one hydrochloride] and `Cc1csc(-c2cnn3c(C4CCNCC4)cc(=O)[nH]c23)c1` [Example 66, 3-(4-Methyl-2-thienyl)-7-(piperidin-4-yl)pyrazolo[1,5-a]pyrimidin-5(4H)-one hydrochloride] are within 1.5-fold of each other in IC50: 23 nM for the first, 17 nM for the second.

Compared with `O=C(c1cnn2c(C3CCNCC3)cc(=O)[nH]c12)N1CCC(F)(F)C1` [Example 101, 3-[(3,3-difluoropyrrolidin-1-yl)carbonyl]-7-(piperidin-4-yl)pyrazolo[1,5-a]pyrimidin-5(4H)-one hydrochloride], `CCNC(=O)c1cnn2c(C3CCNCC3)cc(=O)[nH]c12` [Example 19, N-Ethyl-5-oxo-7-(piperidin-4-yl)-4,5-dihydropyrazolo[1,5-a]pyrimidine-3-carboxamide hydrochloride] is 2.3-fold lower in IC50: 34 nM for the first, 15 nM for the second.

`Cc1nn2c(C3CCNCC3)cc(=O)[nH]c2c1-c1nnc(C2CCC2)o1` [Example 340, 3-(5-cyclobutyl-1,3,4-oxadiazol-2-yl)-2-methyl-7-(piperidin-4-yl)pyrazolo[1,5-a]pyrimidin-5 (4H)-one hydrochloride] and `COC1CCN(C(=O)c2c(C)nn3c(C4CCNCC4)cc(=O)[nH]c23)CC1` [Example 403, 3-[(4-methoxypiperidin-1-yl)carbonyl]-2-methyl-7-(piperidin-4-yl) pyrazolo[1,5-a] pyrimidin-5(4H)-one hydrochloride] are within 1.5-fold of each other in IC50: 28 nM for the first, 36 nM for the second.

Compared with `Cc1nn2c(C3CCNCC3)cc(=O)[nH]c2c1C(=O)N1CCCC2(CC2)C1` [Example 409, 3-(5-azaspiro [2.5]oct-5-ylcarbonyl)-2-methyl-7-(piperidin-4-yl) pyrazolo[1,5-a] pyrimidin-5(4H)-one hydrochloride], `Cc1nn2c(C3CCNCC3)cc(=O)[nH]c2c1C(=O)N1CCCc2ccccc21` [Example 404, 3-(3,4-dihydroquinolin-1(2H)-ylcarbonyl)-2-methyl-7-(piperidin-4-yl) pyrazolo[1,5-a] pyrimidin-5(4H)-one hydrochloride] is 1.5-fold lower in IC50: 46 nM for the first, 30 nM for the second. The second is the more potent here.

First: O=c1cc(C2CCNCC2)n2ncc(-c3nnc(Cc4cccnc4)o3)c2[nH]1 [Example 331, 7-(piperidin-4-yl)-3-[5-(pyridin-3-ylmethyl)-1,3,4-oxadiazol-2-yl]pyrazolo[1,5-a]pyrimidin-5 (4H)-one hydrochloride]
Second: COc1ccc(Cc2nnc(-c3cnn4c(C5CCNCC5)cc(=O)[nH]c34)o2)cc1 [Example 176, 3-[5-(4-methoxybenzyl)-1,3,4-oxadiazol-2-yl]-7-(piperidin-4-yl)pyrazolo[1,5-a]pyrimidin-5(4H)-one hydrochloride]
The IC50 of the first is 1.6-fold lower: 24 nM for the first, 38 nM for the second.

`O=c1cc(C2CCNCC2)n2ncc(-c3nc(C4CCN(C5CC5)CC4)no3)c2[nH]1` [Example 193, 3-[3-(1-cyclopropylpiperidin-4-yl)-1,2,4-oxadiazol-5-yl]-7-(piperidin-4-yl)pyrazolo[1,5-a]pyrimidin-5(4H)-one hydrochloride] and `CC(C)(C)c1noc(-c2cnn3c(C4CCNCC4)cc(=O)[nH]c23)n1` [Example 194, 3-(3-tert-butyl-1,2,4-oxadiazol-5-yl)-7-(piperidin-4-yl)pyrazolo[1,5-a]pyrimidin-5(4H)-one hydrochloride] are within 1.5-fold of each other in IC50: 32 nM for the first, 29 nM for the second.

Going from `O=c1cc(C2CCNCC2)n2ncc(-c3nc(-c4ccccc4OC(F)(F)F)no3)c2[nH]1` [Example 155, 7-(piperidin-4-yl)-3-{3-[2-(trifluoromethoxy)phenyl]-1,2,4-oxadiazol-5-yl}pyrazolo[1,5-a]pyrimidin-5(4H)-one hydrochloride] to `O=c1cc(C2CCNCC2)n2ncc(-c3nc(-c4ccccc4Cl)no3)c2[nH]1` [Example 121, 3-[3-(2-Chlorophenyl)-1,2,4-oxadiazol-5-yl]-7-(piperidin-4-yl)pyrazolo[1,5-a]pyrimidin-5(4H)-one hydrochloride], the IC50 rises from 14 nM to 40 nM (2.9-fold).

Compared with `Cc1nc(-c2cnn3c(C4CCNCC4)cc(=O)[nH]c23)sc1C` [Example 328, 3-(4,5-dimethyl-1,3-thiazol-2-yl)-7-(piperidin-4-yl)pyrazolo[1,5-a]pyrimidin-5(4H)-one hydrochloride], `Cc1sc(-c2ccccc2)nc1-c1cnn2c(C3CCNCC3)cc(=O)[nH]c12` [Example 450, 3-(5-methyl-2-phenyl-1,3-thiazol-4-yl)-7-(piperidin-4-yl)pyrazolo[1,5-a]pyrimidin-5 (4H)-one hydrochloride] is 17-fold higher in IC50: 21 nM for the first, 360 nM for the second.

`C[C@H]1C[C@H]1c1nc(-c2cnn3c(C4CCNCC4)cc(=O)[nH]c23)no1` (relative stereo) [Example 382, Rel-3-{5-[(1R,2S)-2-methylcyclopropyl]-1,2,4-oxadiazol-3-yl}-7-(piperidin-4-yl)pyrazolo[1,5-a]pyrimidin-5(4H)-one hydrochloride] and `Cc1c(Cl)cccc1-c1nc(-c2cnn3c(C4CCNCC4)cc(=O)[nH]c23)no1` [Example 229, 3-[5-(3-chloro-2-methylphenyl)-1,2,4-oxadiazol-3-yl]-7-(piperidin-4-yl)pyrazolo[1,5-a]pyrimidin-5(4H)-one hydrochloride] are within 1.5-fold of each other in IC50: 28 nM for the first, 36 nM for the second.

First: Cc1ccc(-c2noc(-c3cnn4c(C5CCNCC5)cc(=O)[nH]c34)n2)cc1C [Example 129, 3-[3-(3,4-Dimethylphenyl)-1,2,4-oxadiazol-5-yl]-7-(piperidin-4-yl)pyrazolo[1,5-a]pyrimidin-5(4H)-one hydrochloride]
Second: Cc1ccc(-c2noc(-c3cnn4c(C5CCNCC5)cc(=O)[nH]c34)n2)c(F)c1 [Example 131, 3-[3-(2-Fluoro-4-methylphenyl)-1,2,4-oxadiazol-5-yl]-7-(piperidin-4-yl)pyrazolo[1,5-a]pyrimidin-5(4H)-one hydrochloride]
The IC50 of the first is 1.7-fold lower: 38 nM for the first, 63 nM for the second.

`Cc1ccc(C)c(-c2csc(-c3cnn4c(C5CCNCC5)cc(=O)[nH]c34)n2)c1` [Example 329, 3-[4-(2,5-dimethylphenyl)-1,3-thiazol-2-yl]-7-(piperidin-4-yl)pyrazolo[1,5-a]pyrimidin-5(4H)-one hydrochloride] and `O=c1cc(C2CCNCC2)n2ncc(-c3ccccn3)c2[nH]1` [Example 2, 7-(Piperidin-4-yl)-3-(pyridin-2-yl)pyrazolo[1,5-a]pyrimidin-5(4H)-one dihydrochloride] are within 1.5-fold of each other in IC50: 54 nM for the first, 39 nM for the second.

Compared with `COCc1nn2c(C3CCNCC3)cc(=O)[nH]c2c1-c1ccccc1` [Example 11, 2-(Methoxymethyl)-3-phenyl-7-(piperidin-4-yl)pyrazolo[1,5-a]pyrimidin-5(4H)-one hydrochloride], `O=c1cc(C2CCNCC2)n2ncc(S(=O)(=O)c3ccccc3)c2[nH]1` [Example 73, 3-(Phenylsulfonyl)-7-(piperidin-4-yl)pyrazolo[1,5-a]pyrimidin-5(4H)-one hydrochloride] is 4.8-fold lower in IC50: 57 nM for the first, 12 nM for the second. The second is the more potent here.

`O=c1cc(C2CCNCC2)n2ncc(CN3CCOCC3)c2[nH]1` [Example 348, 3-(morpholin-4-ylmethyl)-7-(piperidin-4-yl)pyrazolo[1,5-a]pyrimidin-5(4H)-one hydrochloride] and `C[C@H]1CCCN1Cc1cnn2c(C3CCNCC3)cc(=O)[nH]c12` [Example 363, 3-{[(2S)-2-methylpyrrolidin-1-yl]methyl}-7-(piperidin-4-yl)pyrazolo[1,5-a]pyrimidin-5(4H)-one hydrochloride] are within 1.5-fold of each other in IC50: 160 nM for the first, 130 nM for the second.

`O=c1cc(C2CCNCC2)n2ncc(-c3cnc(N4CCOCC4)s3)c2[nH]1` [Example 376, 3-[2-(morpholin-4-yl)-1,3-thiazol-5-yl]-7-(piperidin-4-yl)pyrazolo[1,5-a]pyrimidin-5 (4H)-one hydrochloride] and `Cc1ccccc1CN(C)C(=O)c1c(C)nn2c(C3CCNCC3)cc(=O)[nH]c12` [Example 433, N,2-dimethyl-N-(2-methyl-benzyl)-5-oxo-7-(piperidin-4-yl)-4,5-dihydro-pyrazolo[1,5-a] pyrimidine-3-carboxamide hydrochloride] are within 1.5-fold of each other in IC50: 32 nM for the first, 31 nM for the second.

same assay, conditions: human citrated platelet-poor plasma 5%, fibrinogen 3 μM, CaCl2 10 mM, tPA 0.2 nM, 37° C., OD at 405 nm; trifluoroacetate

In the case of `CCOC(=O)c1c(C)nn2c(C3CCNCC3)cc(=O)[nH]c12` [Example 9, Ethyl 2-methyl-5-oxo-7-(piperidin-4-yl)-4,5-dihydropyrazolo[1,5-a]pyrimidine-3-carboxylate trifluoroacetate], the IC50 is reported as 33 nM.
